The experiment deals with Monoglyceride lipase (Homo sapiens, UniProt Q99685). Description: Inhibition of human recombinant MAGL incubated for 5 mins followed by substrate addition by cayman fluorescence based multimode microplate reader assay.

Chains of the proteins cited; added tags and fusions are not shown.
UniProt Q99685, whole entry: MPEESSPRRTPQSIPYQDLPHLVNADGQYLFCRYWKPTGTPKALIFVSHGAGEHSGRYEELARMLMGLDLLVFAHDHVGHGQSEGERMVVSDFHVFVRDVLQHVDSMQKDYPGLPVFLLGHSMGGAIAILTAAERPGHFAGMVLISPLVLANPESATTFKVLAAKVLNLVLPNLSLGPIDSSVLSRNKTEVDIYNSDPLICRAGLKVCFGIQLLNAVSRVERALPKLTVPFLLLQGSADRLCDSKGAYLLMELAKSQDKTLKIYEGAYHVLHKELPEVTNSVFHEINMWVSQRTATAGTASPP

As a reminder, the IC50 is the point on the concentration scale where inhibition reaches its midpoint. For `O=C(Oc1ccc([N+](=O)[O-])cc1)N1CCN(Cc2cccc(Oc3ccccc3)c2)CC1`, the IC50 was found to be 4 nM.

(Values after ChEMBL document CHEMBL5143629, “Synthesis and evaluation of dual fatty acid amide hydrolase-monoacylglycerol lipase inhibition and antinociceptive activities of 4-methylsulfonylaniline-derived semicarbazones” (Bioorg Med Chem, 2022).)
